From PubChem BioAssay AID485364 (National Center for Advancing Translational Sciences (NCATS), 2010)
The list shows a part of the results, in another mix than the full data. Active and inactive are the calls of the source. The call rests on the fitted dose curve; in most records, active means well fitted inhibition curve with a large enough effect; inconclusive means small, poorly fitted or top-dose-only effect; inactive means no such curve, though single readings can be large or run the other way.

Molecular target: Schistosoma mansoni thioredoxin glutathione reductase (TGR) (UniProt Q962Y6)
Assay: qHTS Assay for the Inhibitors of Schistosoma Mansoni Peroxiredoxins; further: nearly all actives have a fitted effect of over 60% in size
Conditions: purified TGR, DTNB reduction, TNB absorbance 405 nm; series mostly up to 114 µM; activity change, negative = inhibition: at the top concentration
Text: Schistosomiasis is a major neglected tropical disease that currently affects over 200 million. It is caused by different species of flatworms, such as Schistosoma mansoni. Over the last century, drugs to treat the disease have evolved from potassium antimonyl tartrate, artemisinin, oxamniquine, to praziquantel, with praziquantel remaining the universally-used single drug of choice over the past three decades. However, transmission rates have changed little with praziquantel, and there is evidence for the development of drug resistant parasites. Because there is currently no suitable alternative therapy available, there is an urgent need to identify new targets and drugs for schistosomiasis treatment. Thioredoxin glutathione reductase (TGR), one uniquely positioned S. mansoni enzyme, has been identified as a major component of the worms' distinct and compressed antioxidant "firewall". TGR is a multifunctional enzyme that catalyzes the interconversion between reduced and oxidized forms of both glutathione (GSH) and thioredoxins, thus making it an attractive new antiparasitic target. Recently, a quantitative high-throughput screen of the NIH Molecular Libraries Small Molecule Repository (MLSMR, ~71K at the time of the screen in 2007) was performed using an assay that targeted both TGR and peroxiredoxin2 (Prx2, an H2O2-reducing enzymatic component of the S. mansoni redox "firewall") by following the decrease of NADPH fluorescence. […] Additional mechanistic link between exogenous NO donation and parasitic injury for the oxadiazole-2-oxide class of compounds was also expanded and better defined. Although the screen addressed both TGR and Prx2, the assay required post-screen target deconvolution for further characterization of the actives. In addition, the fluorescence assay was also subject to fluorescence interference from compound library members. We have developed a 1536-well-based kinetic HTS assay to address TGR alone. The assay followed the reduction of 5, 5'-dithiobis (2-nitrobenzoic acid) (DTNB) (Ellman's reagent) by NADPH and measured the increase in absorbance at 412 nm of the reaction product, TNB. […] This assay format can be used to screen the current MLSMR collection (with >300K compounds available) to find novel TGR inhibitors. Furoxan is a good choice to serve as a positive control in the primary HTS assay.
Three microliters of reagents (100 uM NADPH and 20 nM TGR or 100 uM NADPH as no-enzyme control) were dispensed into 1,536-well black clear-bottomed plates. Compounds (23 nL) were transferred via Kalypsys pin tool equipped with 1536-pin array (10 nL slotted pins, V&P Scientific, San Diego, CA). The plates were then be incubated for 15 min at room temperature, and 1 uL aliquot of 500 uM NADPH were added, immediately followed by a 1 uL aliquot of 15 mM DTNB to start the reaction. The plate was transferred to a ViewLux high-throughput CCD imager (Perkin-Elmer, Wellesley, MA) where kinetic measurements of the TNB absorbance were acquired using a 405 excitation filter. Throughout the screen, reagent bottles and all liquid lines were made light-tight to minimize reagent degradation. All screening operations were performed on a fully integrated robotic system (Kalypsys, San Diego, CA) containing one RX-130 and two RX-90 anthropomorphic robotic arms (Staubli, Duncan, SC). Library plates were screened starting from the lowest and proceeding to the highest concentration, and a "double-dipping" step of the highest concentration was required to access higher concentrations of compounds. Vehicle-only plates, with DMSO being pin-transferred to the entire column 5-48 compound area, were inserted uniformly at the beginning and the end of each library in order to monitor for and record any shifts in the background, which can be affected by reagent dispensers or loss in enzyme activity overtime. […]
On the % scale 0 is the no-effect control and ±100 the full control effect; potency means the concentration at half of the fitted maximal effect.

Row | SMILES | activity change, negative = inhibition | Potency
1 | CC(C)/C=N\N=C(\N)N[N+](=O)[O-] | inactive: -1.41% | 
2 | CN(C(=O)Cc1ccc(Cl)c(Cl)c1)[C@@H]1CCCC[C@H]1N1CCCC1 | inactive: -4.16% | 
3 | CC(C)C(=O)NC(Sc1ccccc1)C(Cl)(Cl)Cl (stereo not drawn) | inactive: 2.07% | 
4 | O=P(Nc1nccs1)(c1ccccc1)c1ccccc1 | inactive: 4.35% | 
5 | c1nnnn1CCn1cnnn1 | inactive: -16.8% | 
6 | CN(C)C1(CNC(=O)c2ccc(Cl)c(S(N)(=O)=O)c2)CCCCC1 | inactive: 1.01% | 
7 | C[C@H]1OP(=O)(Oc2ccccc2)[C@H](O)[C@H](O)[C@H]1N=[N+]=[N-] (stereo partly drawn) | inactive: 1.5% | 
8 | O=P(Nc1nc2ccccc2s1)(c1ccccc1)c1ccccc1 | inactive: -6.36% | 
9 | O=[N+]([O-])c1ncn(CCn2cnc([N+](=O)[O-])n2)n1 | inactive: -12.1% | 
10 | CC(=O)NC(SC(=S)N(C)C)C(Cl)(Cl)Cl (stereo not drawn) |  | active: 25.1 µM
11 | O=[As](O)(c1ccccc1)c1ccc(O)cc1 |  | active: 35.5 µM
12 | C(Cc1nn[nH]n1)Cc1nn[nH]n1 | inactive: -0.136% | 
13 | O=C(OC1CN2CCC1CC2)c1cccc(Cl)c1 (stereo not drawn) | inactive: -0.446% | 
14 | O=C(NC1CCS(=O)(=O)C1)NP(=S)(Oc1ccccc1)Oc1ccccc1 (stereo not drawn) | inactive: 0.398% | 
15 | Cc1ccc(NP(=O)(Oc2cccc(C)c2)Oc2cccc(C)c2)nc1 | inactive: 6.46% | 
16 | c1ccc(-c2nn[nH]n2)c(-c2nn[nH]n2)c1 | inactive: 5.46% | 
17 | Cc1ccc(OP(=O)(Nc2ccccn2)Oc2ccc(C)cc2)cc1 | inactive: -1.49% | 
18 | COC(=O)c1cc2c(s1)N=C(c1ccccc1)N(C)P2(=O)N1CCOCC1 (stereo not drawn) | inactive: -15.7% | 
19 | CCC(=O)N1C2C3N(C(=O)CC)C1C1N(C(=O)CC)C(C(N1C(=O)CC)N3C(=O)CC)N2C(=O)CC | inactive: 5.26% | 
20 | O=C(OC1CN2CCC1CC2)c1ccccc1 (stereo not drawn) | inactive: -4.01% | 
21 | CN(C)C(=O)Oc1noc2ccccc12 | inactive: 12.6% | 

Row | SMILES | activity change, negative = inhibition | Potency
22 | Cc1ccccc1OP(=O)(Nc1ccccn1)Oc1ccccc1C | inactive: 6.15% | 
23 | CCOc1ccc(C2=NCC(CBr)S2)cc1 (stereo not drawn) | inactive: 14.9% | 
24 | O=P1(Nc2nc3ccc(Cl)cc3s2)COc2ccccc2O1 (stereo not drawn) | inactive: 22.1% | 
25 | CC(C)(C)C(=O)NC(Sc1ccccc1)C(Cl)(Cl)Cl (stereo not drawn) | inactive: -15.6% | 
26 | CC(=O)c1ccc(N2CC2c2ccncc2)cc1 (stereo not drawn) | inactive: 2.15% | 
27 | C[C@@H]1C=CCP(=O)(Oc2ccccc2)O1 (stereo partly drawn) | inactive: -11.2% | 
28 | C[C@H]1OP(=O)(Oc2ccccc2)C[C@@H]2O[C@@H]21 (stereo partly drawn) | inactive: 1.13% | 
29 | Cc1ccccc1CN(C)C(=O)COC(=O)C(O)(c1ccccc1)c1ccccc1 | inactive: -3.49% | 
30 | CC(=O)Nc1ccc(Oc2c([N+](=O)[O-])cc([N+](=O)[O-])cc2[N+](=O)[O-])cc1 | inactive: -10.8% | 
31 | CC(=O)Nc1ccc([As](=O)(O)O)c(O)c1 |  | active: 12.6 µM
32 | NC(=O)c1cc([N+](=O)[O-])cc([N+](=O)[O-])c1N | inactive: -6.61% | 
33 | Cc1ccc(N/C(=N/P(=O)(N2CCOCC2)N2CCOCC2)N2CCOCC2)cc1 | inactive: -0.588% | 
34 | CN(C(=O)Cc1ccc(Cl)c(Cl)c1)[C@H]1CCCC[C@H]1N1CCCC1 | inactive: -12.2% | 
35 | Cc1ccc(OP(=O)(Nc2nccs2)Oc2ccc(C)cc2)cc1 | inactive: 8.71% | 
36 | COc1ccccc1OP(=O)(Nc1ccc(C)cn1)Oc1ccccc1OC | inactive: 0% | 
37 | Clc1ccc(Cl)c(NC2=NCC(CBr)S2)c1 (stereo not drawn) |  | active: 3.98 µM
38 | CN1CCCC(OC(=O)C(c2ccccc2)c2ccccc2)C1 (stereo not drawn) | inactive: 0.0622% | 
39 | CC(C)CC(=O)NC(Sc1ccc(Cl)cc1)C(Cl)(Cl)Cl (stereo not drawn) | inactive: -14.3% | 
40 | Nc1cc(N)c2nonc2c1[N+](=O)[O-] |  | active: 50.1 µM
41 | Oc1ccccc1CNc1ccccn1 | inactive: 13.8% | 
42 | O=C(O)c1ccccc1[As](=O)(O)O |  | active: 1.41 µM

Row | SMILES | activity change, negative = inhibition | Potency
43 | O=P(Nc1nc2ccc(Cl)cc2s1)(c1ccccc1)c1ccccc1 | inactive: 18.7% | 
44 | Cc1ccc(NP(=O)(Oc2ccccc2F)Oc2ccccc2F)nc1 | inactive: 5.88% | 
45 | CCOP(=O)(Nc1ccccc1)OCC |  | inactive
46 | Cc1cc(SC(NC(=O)c2ccc(F)cc2)C(Cl)(Cl)Cl)ncn1 (stereo not drawn) | inactive: -33.9% | 
47 | O=[N+]([O-])c1cc([N+](=O)[O-])c(CCN2CCOCC2)c([N+](=O)[O-])c1 |  | active: 11.2 µM
48 | CCN(N=Nc1nonc1N)c1nonc1N | inactive: 6.18% | 
49 | Nc1cccc2ccc([As](=O)(O)O)cc12 |  | active: 39.8 µM
50 | O=C(Nc1cc([As](=O)(O)O)ccc1O)c1ccccc1 |  | active: 6.31 µM
51 | CC(C)(C)C(=O)NC(Sc1ccncn1)C(Cl)(Cl)Cl (stereo not drawn) |  | active: 3.16 µM
52 | O=[N+]([O-])c1ncn(CCn2ncnc2[N+](=O)[O-])n1 | inactive: 0% | 
53 | O=[N+]([O-])c1cccc(NC2=NCC(CBr)S2)c1 (stereo not drawn) |  | active: 22.4 µM
54 | COc1ccc(C2=NCC(CBr)S2)cc1 (stereo not drawn) | inactive: 41.5% | 
55 | O=[N+]([O-])c1cccc2n[nH]nc12 | inactive: -12.3% | 
56 | CC(=O)N1C2C3N(C(C)=O)C1C1N(C(C)=O)C(C(N1C(C)=O)N3C(C)=O)N2C(C)=O | inactive: -19.3% | 
57 | CCc1nc2c(n1)c1c(non1O)c1c2no[n+]1[O-] |  | active: 15.8 µM
58 | O=[N+]([O-])c1cc([N+](=O)[O-])c(CCNc2ccccc2)c([N+](=O)[O-])c1 |  | active: 2.51 µM
59 | Cc1ccc(NP(=O)(Oc2ccccc2)Oc2ccccc2)nc1 | inactive: 1.2% | 
60 | Nc1ccc([As](=O)(O)c2ccc(N)cc2)cc1 | inactive: 1.15% | 
61 | CCN(/C(=N/P(=O)(N1CCOCC1)N1CCOCC1)N1CCOCC1)c1ccc(OC)cc1 | inactive: 12.7% | 
62 | CN(C)C(=O)OCCc1n(C)cc[n+]1C | inactive: -19.4% | 
63 | CC1CCN(C(=O)Oc2c(Cl)cc(Cl)c3cccnc23)CC1 | inactive: 19% | 
